C2C12 statin: suppressors of statin myotoxicity in C2C12 myotubes, primary screen, cell-based, single point, plate reader; C2C12 myotubes + simvastatin, ATP luminescence, 48 h; scaled: DMSO 0, geranylgeraniol control 100; rescue of ATP level, % at 7.49 µM; 330,000 tested, 0.78% active;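 active = mean ATP rescue above about 67%, or every replicate alone reaching that limit, limit read from the data, passing the limit was not always enough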;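 note: myotubes were challenged with 10 µM simvastatin during compound exposure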
UUG fidelity: modulators of start codon recognition fidelity in yeast; AID 602363; hit rate 0.13% among 350,000; activity score, % at 18.7 µM; S. cerevisiae UUG-firefly luciferase reporter, luminescence/redox ratio;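 active = replicate mean at a twofold rise or more, about +100% in these data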;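 note: firefly luciferase made from a UUG start codon reports start codon fidelity; reporter light over untreated wells divided by growth signal over untreated wells; some hits fall short of that in this replicate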
esBAF inh: Bmi1 luciferase reporter increase in mESCs, primary screen, esBAF inhibitor project, mouse ES cells, Bmi1 luciferase knock-in, single point; AID 602393, 2012; reporter increase, % at 12.5 µM; 350,000 tested, 2% active; 24 h; 100% = twice the neutral-well signal; in the data active = activation above about 40%;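 note: a rise in the Bmi1 reporter signal indicates esBAF inhibition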
E-selectin induc: E-selectin induction in HUVECs, primary screen, imaging, HUVEC, immunofluorescence imaging, single point | P16581 | activation, % at 7.58 µM | normalized: neutral wells 0, TNF-alpha wells 100 | 260,000 tested, 0.37% active;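 active = mean E-selectin-positive cell signal at least 10% of the positive control, reached in at least 60% of replicates, without over 20% cell loss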
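Material: HUVEC primary endothelial cells; Amount: 3,000 cells per well; Dosing: single concentration; Medium: EGM-2 growth medium on 0.1% gelatin-coated wells; Read-out basis: percent E-selectin-positive cells; Signal: immunofluorescence imaging; Control set: TNF-alpha, DMSO.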
PGC1a acetyl inh: inhibitors of PGC1a acetylation signal, primary screen, cell-based, U2OS, AlphaScreen, inhibitor mode; inhibition, % at 15.6 µM; 350,000 tested, 0.17% active; AlphaScreen anti-acetyl-lysine; with virally co-expressed GCN5 acetyltransferase;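 active = every replicate shows inhibition of at least 40%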
PglD DTNB: C. jejuni PglD acetyltransferase inhibitors, primary screen, biochemical, DTNB colorimetric, single point; UDP-N-acetylbacillosamine N-acetyltransferase PglD (Campylobacter jejuni); purified PglD enzyme, DTNB colorimetric CoA detection; inhibition, % at 12.5 µM; 360,000 tested, 0.098% active; AID 602405, 2012; in the data active = inhibition above about 16%, passing the limit was not always enough
Of the large screens only hits and unclear results are named; the others gave an inactive call. Rows were chosen to be rich in hits. Some 2.8% of all compounds tested hit in one or more screens of this group.

O=C(C[C@H]1CC[C@H]2[C@@H](COC[C@@H](O)CN2C(=O)c2ccc(F)cc2)O1)Nc1ccc(-c2ccccc2)cc1	none (no result: UUG fidelity)
CCNC(=O)C[C@@H]1CC[C@@H]2[C@@H](COc3ccc(NC(=O)Nc4cccc(OC)c4)cc3C(=O)N2C)O1	E-selectin induc 76
CCCNC(=O)C[C@@H]1CC[C@@H]2[C@H](COC[C@@H](O)CN2C(=O)Nc2ccc3c(c2)OCO3)O1	none
CCNC(=O)C[C@@H]1CC[C@@H]2[C@H](COC[C@H](O)CN2C(=O)Nc2ccc3c(c2)OCO3)O1	esBAF inh 44
O=C(C[C@@H]1CC[C@H]2[C@@H](COC[C@H](O)CN2C(=O)c2ccc(F)cc2)O1)Nc1ccc(-c2ccccc2)cc1	E-selectin induc 38 (no result: UUG fidelity)
O=C(C[C@@H]1CC[C@H]2[C@@H](COC[C@H](O)CN2C(=O)Nc2cccc(F)c2)O1)NCc1ccccc1F	PglD DTNB 19
COC(=O)C[C@@H]1C=C[C@H](NS(=O)(=O)c2ccc(OC)cc2)[C@@H](CO)O1	none
CCC(=O)N1[C@H](C(=O)N2CCCCC2)[C@@H](CO)[C@@H]2Cn3c(ccc(-c4ccccc4)c3=O)[C@@H]21	none (no result: UUG fidelity, PGC1a acetyl inh)
C[C@H]1CN([C@@H](C)CO)C(=O)c2cc(C3=CCCC3)cnc2O[C@H]1CN(C)C(=O)CN1CCOCC1	none
CCCNC(=O)C[C@H]1CC[C@H]2[C@@H](COC[C@H](O)CN2C(=O)Nc2ccc3c(c2)OCO3)O1	none
CCNC(=O)C[C@H]1CC[C@@H]2[C@H](COC[C@H](O)CN2C(=O)Nc2ccc3c(c2)OCO3)O1	esBAF inh 45
CCCN1C[C@H](C)[C@@H](OC)CN(C)C(=O)c2ccc(NC(=O)c3ccccc3F)cc2OC[C@@H]1C	none (no result: C2C12 statin, UUG fidelity, esBAF inh, PglD DTNB)
C[n+]1ccc(C(=O)N/N=C/c2ccco2)cc1	E-selectin induc 139 (no result: C2C12 statin, esBAF inh)
C[C@@H]1CN([C@@H](C)CO)S(=O)(=O)c2ccc(-c3cccnc3)cc2O[C@H]1CN(C)C(=O)NC1CCCCC1	none
CC(=O)Nc1nc2n(n1)C(c1ccc(F)cc1)C=C(c1ccccc1)N2 (stereo not drawn)	C2C12 statin 133 (no result: E-selectin induc)
C[C@H]1CN([C@@H](C)CO)C(=O)Cc2cc(NC(=O)C3CCCCC3)ccc2O[C@H]1CN(C)S(=O)(=O)c1cn(C)cn1	none
CO[C@@H]1CN(C)C(=O)c2ccc(NC(=O)C3CC3)cc2OC[C@H](C)N(C(=O)c2ccncc2)C[C@H]1C	none (no result: UUG fidelity)
Cc1ccc(NCc2nc3ccccc3n2C)cc1	esBAF inh 72 (no result: E-selectin induc)
Cn1c(NCc2ccc(Cl)cc2)nc2ccccc21	esBAF inh 71 (no result: E-selectin induc)
CC(C)n1c(NCc2nc3ccccc3n2C)nc2ccccc21	none (no result: C2C12 statin, E-selectin induc, PGC1a acetyl inh)
Cn1c(CNc2nc3ccccc3n2C)nc2ccccc21	esBAF inh 68 (no result: C2C12 statin, E-selectin induc, PGC1a acetyl inh)
Cn1c(CNc2ccc(Br)cc2)nc2ccccc21	none (no result: C2C12 statin, UUG fidelity, esBAF inh, PGC1a acetyl inh, PglD DTNB)
Cn1c(CNc2ccc(O)cc2)nc2ccccc21	none (no result: PGC1a acetyl inh)
Cc1ccc(NCc2nc3ccccc3n2C)cc1C	esBAF inh 51 (no result: E-selectin induc, PGC1a acetyl inh)
Cc1cc(C(=O)Nc2cccc3c2O[C@H](CN(C)S(=O)(=O)c2cn(C)cn2)[C@H](C)CN([C@@H](C)CO)C3=O)n(C)n1	none (no result: E-selectin induc)
COc1ccc2sc(NCc3ccccc3)nc2c1	esBAF inh 99 (no result: E-selectin induc)
C[C@@H]1CN([C@@H](C)CO)C(=O)Cc2cc(NC(=O)C3CCCCC3)ccc2O[C@H]1CN(C)C(=O)Nc1cccc2ccccc12	none
Cc1c(C(=O)NCC(C)C)sc2nc(-c3ccc(F)cc3)cn12	esBAF inh 50 (no result: E-selectin induc)
C[C@H]1CN([C@@H](C)CO)C(=O)c2cccc(NS(=O)(=O)c3ccc(Cl)cc3)c2O[C@@H]1CN(C)S(=O)(=O)c1cn(C)cn1	none (no result: C2C12 statin, UUG fidelity, PglD DTNB)
CO[C@@H]1CN(C)C(=O)c2ccc(NC(=O)c3cc(C)on3)cc2OC[C@@H](C)N(C(C)=O)C[C@@H]1C	none
Fc1ccc(/C=N/N2CCCCC2)c(F)c1	PGC1a acetyl inh 66 (no result: E-selectin induc)
Clc1ccccc1Cn1nnc(-c2ccccc2)n1	none (no result: C2C12 statin, UUG fidelity, esBAF inh, E-selectin induc, PglD DTNB)
Fc1cccc(Cl)c1Cn1nnc(-c2ccc(N3CCOCC3)cc2)n1	C2C12 statin 99 (no result: E-selectin induc)
Fc1ccc(Cn2nnc(-c3ccc(CN4CCOCC4)cc3)n2)cc1	none
Clc1ccc(Cn2nnc(-c3ccc(CN4CCOCC4)cc3)n2)cc1	esBAF inh 52 (no result: E-selectin induc)
Clc1ccc(Cn2nnc(-c3ccccc3)n2)cc1	esBAF inh 47 (no result: C2C12 statin, E-selectin induc)
COc1ccc(S(=O)(=O)N[C@H]2CC[C@H](CCn3cc(-c4cccc(F)c4)nn3)O[C@@H]2CO)cc1	none
CCC(=O)Nc1ccc2c(c1)OC[C@@H](C)N(C(=O)C1CC1)C[C@@H](C)[C@H](OC)CN(C)C2=O	none
C[C@@H]1CN([C@@H](C)CO)C(=O)c2cc(NC(=O)Nc3ccc(C(F)(F)F)cc3)ccc2O[C@@H]1CN(C)Cc1ccc(Oc2ccccc2)cc1	E-selectin induc 100
C[C@@H]1CN([C@@H](C)CO)C(=O)Cc2cc(NC(=O)Nc3cccc4ccccc34)ccc2O[C@H]1CN(C)Cc1ccc2c(c1)OCO2	C2C12 statin 75 (no result: E-selectin induc)
C[C@H](CO)N1C[C@H](C)[C@@H](CN(C)Cc2ccc(Oc3ccccc3)cc2)Oc2ccc(NC(=O)Nc3cccc4ccccc34)cc2CC1=O	C2C12 statin 74 (no result: E-selectin induc)
C[C@H]1CN([C@@H](C)CO)C(=O)Cc2cc(NC(=O)Nc3ccc(C(F)(F)F)cc3)ccc2O[C@@H]1CN(C)Cc1ccc(Oc2ccccc2)cc1	none
C[C@H](CO)N1C[C@H](C)[C@@H](CN(C)Cc2ccc(Oc3ccccc3)cc2)Oc2ccc(NC(=O)Nc3ccc(C(F)(F)F)cc3)cc2CC1=O	E-selectin induc 36
C[C@H]1CN([C@@H](C)CO)C(=O)Cc2cc(NC(=O)Nc3cccc4ccccc34)ccc2O[C@H]1CN(C)Cc1ccc(Oc2ccccc2)cc1	none (no result: E-selectin induc)
C[C@H]1CN([C@@H](C)CO)C(=O)Cc2cc(NC(=O)Nc3cccc4ccccc34)ccc2O[C@@H]1CN(C)Cc1ccc2c(c1)OCO2	none (no result: E-selectin induc)
O=C(C[C@@H]1CC[C@@H](NC(=O)c2ccc3c(c2)OCO3)[C@@H](CO)O1)NC1Cc2ccccc2C1	none
C[C@@H]1CN([C@H](C)CO)S(=O)(=O)c2ccc(C#Cc3cccc(F)c3)cc2O[C@H]1CN(C)C(=O)NC1CCCCC1	none
C[C@@H]1CN([C@H](C)CO)C(=O)Cc2cc(NC(=O)Cc3cn(C)c4ccccc34)ccc2O[C@@H]1CN(C)S(=O)(=O)c1cccs1	none
